# From paper PMC11024108
# The list shows a part of the results.
# Biological target: RCC1-like G exchanging factor-like protein (UniProt Q96I51)
# Assay: cross-link between two proteins; cross-linking mass spectrometry
substance,measurement,value
"Malate dehydrogenase, mitochondrial, P40926",listed as a hit,yes
